Yeast mating assay B: variants of the scFv Ab-14

All variants were tested on one target, the spike HR2 peptide PDVDLGDISGINAS (SARS-CoV-2).

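Phage display of a naive human antibody library on the peptide gave the parent. This is the validation round: designs drawn from the data on random variants, tested in the same kind of assay. Group labels follow the data file (Ctrl: baseline library sampled from a position-specific scoring matrix, with some repeated check sequences; Rand: our label for a block that the file lists under HC and that is probably the random mutants of the ten best first-round binders; En: ensemble of fine-tuned language models; GP: Gaussian process model; HC: hill climbing; Gen: genetic algorithm; Gibbs: Gibbs sampling; a sequence that several methods proposed may carry one label only). AlphaSeq pools MATa yeast showing the antibodies with MATalpha yeast showing the peptide. Binding brings cells together so that they mate, and sequencing counts the barcode pairs among the diploids. Scores were corrected for input abundance and mapped to Kd with protein pairs of known affinity run in the same pool. Mating was done six times.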

Each scFv is VH, the linker GGGGSGGGGSGGGGS, VL, as in the parent Ab-14, and differs from it in the CDRs of the light chain only.
VH: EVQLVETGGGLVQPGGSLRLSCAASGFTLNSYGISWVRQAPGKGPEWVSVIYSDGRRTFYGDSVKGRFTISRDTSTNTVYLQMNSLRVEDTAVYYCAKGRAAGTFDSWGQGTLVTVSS
VL: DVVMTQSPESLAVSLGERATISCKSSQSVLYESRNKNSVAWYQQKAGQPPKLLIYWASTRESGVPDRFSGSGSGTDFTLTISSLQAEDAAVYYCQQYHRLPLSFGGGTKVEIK

Each variant is given by its three light chain CDRs, as the data file delimits them; those of the parent are KSSQSVLYESRNKNSVA, WASTRES, QQYHRLPLS.
The read-out is the apparent dissociation constant on a log10 scale (nM): the lower, the stronger.
A mean of the replicates is given; it leaves out those without a signal.
Where no diploid with the target was found in any replicate, the entry reads "not detected": below detection, most likely a poor binder, though not proof of it.
The authors' rule: three or more of the six replicates give a measured affinity, fewer mean a poor binder.
The parent sequence was in this pool as ten entries: three were never detected, three once, and four in most replicates, with averages from 0.34 to 2.37.
Empty control strains, which show no peptide, gave a signal in 4% of pairings with all light chain designs; the median was 2.64 and 95% of these signals were weaker than 1.59. No background was subtracted.
Values of this round are not directly comparable with the first-round values of the same sequences.

log10 Kd (nM), mean | replicates with signal | CDR-L1 | CDR-L2 | CDR-L3 | group
-0.48 | 6 of 6 | KLEQWQDYESRNKNSVA | QASTREQ | QQYHRLPLS | GP_Gibbs
1.90 | 1 of 6 | KSSQSDLDESRNKNSVA | MASTRES | QQYHRLPLS | Ctrl
1.16 | 1 of 6 | KSSQSELYESRNVNSVA | AASTRES | QTYHRAPLS | Ctrl
-0.22 | 6 of 6 | KLSQSVLYESRAKNSVA | GASTRES | QQYHRLPLS | GP_Gen
0.15 | 6 of 6 | KSSQSVPYESRNKNSVA | QASTREL | QQYHRLPLS | Ctrl
2.21 | 1 of 6 | MVSQLMMWGLHAKNSIA | EAVMRYN | QQYDRLPLF | En_Gen
1.98 | 2 of 6 | MLSQMWALGSKVKNSVA | QASMRFN | QQYERLPLI | En_Gen
0.25 | 6 of 6 | KVLQSVLYESRNKNSVA | NASTRED | QQYHRLPLS | GP_HC
0.33 | 6 of 6 | KLPQSELYESRNKNSVA | QASQRES | QQYHRLPLS | GP_Gen
0.23 | 6 of 6 | KVSQSTLYESRNKNSVA | NASQRES | QQYHRLPLS | GP_Gen
-0.01 | 6 of 6 | KLQQLVLYESRNKNSVA | DASTRMS | QAYHRLPLS | GP_Gibbs
not detected | 0 of 6 | KSSQSVLEESRNKNSVA | DASTRES | PQYHRLPLS | Ctrl
0.37 | 6 of 6 | KSSQSDLYESRNVNSVA | GASTRDS | QQYHRLPLS | GP_HC
0.01 | 6 of 6 | KLQQSVLYESRNKNSVA | NASTRLD | QQYHRLPLS | GP_Gen
1.33 | 6 of 6 | QISMLLNFESKIGQNVA | QMETRVN | QQYHHLPLS | En_Gen
0.15 | 6 of 6 | KSSQSKLYESRNKNSVA | NASMRES | QQYHRLPLS | Ctrl
-0.12 | 6 of 6 | KLSQSQLYESRMKNAVA | NASTRES | QQYHRLPLS | GP_Gen
0.35 | 6 of 6 | KISMTSENQLKNRNSVA | ELVTRVN | QQYNRLPLS | En_Gen
0.87 | 6 of 6 | KLAGVTEYEMRNKNSVA | QMTTRES | QQYHRLPLS | En_HC
0.19 | 6 of 6 | KLSQSWLYESRNKNSVA | NASQREQ | QQYHRLPLS | GP_Gen
0.38 | 6 of 6 | NLQNPGSELSVWKRNIA | DANIRES | QQYFRLPLL | En_Gibbs
1.48 | 6 of 6 | HMSMLTLQGMRQRNSVA | QMTTREN | QQYDRLPLS | En_Gen
-0.76 | 6 of 6 | NISQMFFMETKNVNNVA | QTSTREQ | QDYHRLPLS | En_HC
not detected | 0 of 6 | KSSPLYLEESRNKNSVA | EASTRES | QQYHRLPLS | GP_HC
2.79 | 4 of 6 | KSSQSVLYESTNQNSVA | WASTRES | QFYHRLPLS | Ctrl
not detected | 0 of 6 | KINGVLINFGEDWNAIA | QENLSNL | QQYFHLPLS | En_Gibbs
-0.43 | 6 of 6 | KLSPSMLYESRNKNSVA | NASTRES | QQYHRLPLS | GP_Gen
-0.16 | 6 of 6 | KVSGSYLLESRNKNSVA | EARTRES | QQYHRLPLS | GP_HC
-0.13 | 6 of 6 | KLSFGNLYESRNKNSVA | EASTRCQ | QQYHRLPLS | GP_Gibbs
1.70 | 6 of 6 | KVEQSVLYDTRNKNSVA | WASTRES | QQYHRLPLS | Ctrl
0.63 | 6 of 6 | QLLMATMQETYSKNSVA | HAETRED | QSYHRLPLS | En_HC
-0.35 | 6 of 6 | KVSPSYLYESRNKNSVA | NASTRES | QQYHRLPLS | GP_Gen
0.30 | 6 of 6 | KISGSYLGLSRNWNAVA | NASQREQ | QQYHRLPLS | GP_Gibbs
0.74 | 6 of 6 | KLSMVTGHLSMAKNNVA | EMETREK | QQYNRLPLA | En_Gen
-0.29 | 6 of 6 | KLSQLELYESRNKNSVA | NASTRMS | QQYHRLPLS | GP_Gen
1.91 | 6 of 6 | IITQSVMQESRNKSNVA | NTSEREP | QQYDRLPLI | En_HC
0.90 | 6 of 6 | VMQMQSDGMLNAKHNVA | GVDMRLE | QHYFRLPLL | En_Gibbs
0.05 | 6 of 6 | KYWQSHLGESRNKNAVA | NASTREE | QQYHRLPLS | GP_Gibbs
0.69 | 6 of 6 | ALSINMPQQHYMYDSIA | HSDRREA | QQYYRLPLA | En_Gibbs
0.83 | 6 of 6 | KSSQSVLYESRNKNSVA | EASQREE | QQYHRLPLS | Ctrl
1.39 | 6 of 6 | QLYAVQDMTSKNENSVA | EQSTREN | QQYHRLPLS | En_HC
0.48 | 6 of 6 | KIHISELYEDRNINSVA | SASQRLE | QQYHRLPLS | GP_Gibbs
0.72 | 6 of 6 | IVSQLMLWGMHAKNSIA | EAQTRVN | QQYDRLPLI | En_Gen
0.50 | 6 of 6 | SLMDNPWVEDHYRKAIA | DINVKAD | QQYHRLPLS | En_Gibbs
0.34 | 6 of 6 | RLTEHTSERAYADAAVA | DASTRND | QQYHRLPLE | En_Gibbs
not detected | 0 of 6 | KSSISYLYESRNKNSVY | EASTRES | QQYHRLPLS | Rand
1.48 | 6 of 6 | KSSQVHLYESRNKNSVA | GASTRES | QQYHRLPLS | GP_HC
0.76 | 6 of 6 | NLMSGMSELSVWSYNIA | SANIRGS | QQYFRLPLL | En_Gibbs
-0.13 | 6 of 6 | KLSQLWLYESRNKNSVA | NASTRES | QQYHRLPLS | GP_Gen
not detected | 0 of 6 | IISGLMLMESRNKNSVA | NAETREY | QHYDRLPLS | En_HC
1.57 | 5 of 6 | KLVNSTLYESRQKNSVA | YASTRES | QQYHRLPLS | GP_HC
2.11 | 6 of 6 | KSSQGVEYESRNKNSVA | WASTRES | QQYHRLPLS | Ctrl
1.17 | 6 of 6 | IFSQSVLMGNLTKNSVA | QASTRFP | QQYHRLPLI | En_HC
1.04 | 6 of 6 | KFMTSGEYQMHEQNNIA | QGNIKFV | QQYFRLPIS | En_Gibbs
1.69 | 6 of 6 | MLLQQTMYGERNRNSVA | HASTRED | QQYHRLPLI | En_HC
1.96 | 6 of 6 | KLYDEATSRVGTAENIA | EKEISLQ | QQYHRLPLS | En_Gibbs
0.21 | 1 of 6 | MLGESYGMMVQKKSSIA | DNSTREA | QQYDRLPLS | En_Gen
0.61 | 6 of 6 | KLMTSDLYESRNVNAVA | EASTRMD | QQYHRLPLS | GP_Gibbs
1.67 | 3 of 6 | QLDTQLQYMDANKQSVA | EMTEVTT | QQYHRLPLE | En_Gibbs

Excerpt, the first 4 entries:

CDR-L1 | CDR-L2 | CDR-L3 | group | log10 Kd (nM), mean | replicates with signal
KLEQWQDYESRNKNSVA | QASTREQ | QQYHRLPLS | GP_Gibbs | -0.48 | 6 of 6
KSSQSDLDESRNKNSVA | MASTRES | QQYHRLPLS | Ctrl | 1.90 | 1 of 6
KSSQSELYESRNVNSVA | AASTRES | QTYHRAPLS | Ctrl | 1.16 | 1 of 6
KLSQSVLYESRAKNSVA | GASTRES | QQYHRLPLS | GP_Gen | -0.22 | 6 of 6

Data: MIT Lincoln Laboratory AlphaSeq set, Li et al. 2023, doi:10.1038/s41467-023-39022-2, as distributed in FLAb.